Experimental data reported in paper PMC3849007 (Journal of Experimental & Clinical Cancer Research : CR, 2013).

system: 5′-d[CGA3T3C(CT)2GA3T3CG]-3′ hairpin duplex DNA; test: Surface plasmon resonance, duplex DNA; assay type: binding; settings: 10 mM HEPES, 200 mM KCl, 3 mM EDTA, 0.01% P20, pH 7.4

Cc1cc2c3c([n+](C)c4ccc(F)cc4c3c1)-c1cc(F)ccc1N2C [Compound 1, 3,11-Difluoro-6,8,13-trimethyl-8H-quino[4,3,2-kl]acridinium metho-sulfate] and CC(=O)Nc1ccc2c(c1)c1cccc3c1c([n+]2C)-c1ccccc1N3C [Compound 3, 3-acetylamino-8,13-dimethyl-8H-quino[4,3,2-kl]-acridinium iodide] are within 1.5-fold of each other in “Surface plasmon resonance K, Duplex (D) DNA” value (“Surface plasmon resonance K” below): 500000 M⁻¹ for the first, 700000 M⁻¹ for the second.

For CC(=O)Nc1ccc2c3cccc4c3c([n+](C)c2c1)-c1ccccc1N4C [Compound 2, 2-Acetylamino-8,13-dimethyl-8H-quino[4,3,2-kl]-acridinium iodide], the “Surface plasmon resonance K” value was 400000 M⁻¹.

In the case of CC[n+]1c2c3c(cc(C)cc3c3cc(F)ccc31)N(C)c1ccc(F)cc1-2 [Compound 8, 13-Ethyl-3,11-difluoro-6,8-dimethyl-8H-quino[4,3,2-kl]acridinium trifluoromethosulfate], the “Surface plasmon resonance K” value is reported as < 50000 M⁻¹.
